In patent publication US20240398816A1, “Gel Treatment for Loss of Taste and Smell” (Cyrano Therapeutics, Inc., priority 2021, published 2024):

Test system: patient who had loss of taste and smell from COVID-19
[1] = 3 months after initial administration, 80 μg theophylline nasal spray once per day, Pre 10
[2] = 3 months after initial administration, 80 μg theophylline nasal spray once per day, Pre 11
[3] = 3 months after initial administration, 80 μg theophylline nasal spray once per day, Pre 12

SMILES: Cn1c(=O)c2[nH]cnc2n(C)c1=O [Theophylline]
- Detection threshold (DT), thiophene (Thio) [1]: 4 bottle units
- Recognition threshold (RT), thiophene (Thio) [1]: 4 bottle units
- Detection threshold (DT), amyl acetate (AA) [2]: 4 bottle units
- Detection threshold (DT), nitrobenzene (NO2B) [2]: 9 bottle units
- Recognition threshold (RT), pyridine (Pyr) [2]: 7 bottle units
- Detection threshold (DT), pyridine (Pyr) (3 months after initial administration, 80 μg theophylline nasal spray once per day, Pre 11, 5 or lower normal): 7 bottle units
- Recognition threshold (RT), amyl acetate (AA) [3]: 4 bottle units
- Recognition threshold (RT), nitrobenzene (NO2B) [3]: 9 bottle units
- Detection threshold and recognition threshold in all four odorant tests (3 months vs baseline): improved
- Factor by which the detectable concentration of AA was lower (3 months vs baseline): 108
- Improvement of recognition threshold (RT) of AA (3 months vs baseline, equivalent to 8 orders of magnitude): 8 bottle units
